Experimental data reported in ChEMBL document CHEMBL5375948, “Development and Pharmacochemical Characterization Discover a Novel Brain-Permeable HDAC11-Selective Inhibitor with Therapeutic Potential by Regulating Neuroinflammation in Mice” (J Med Chem, 2023).

Sequences of proteins named here, by UniProt entry; tags and fusion partners are left off. A change or cut given only in a name is not applied to a line headed by its entry.
UniProt P47898, whole entry: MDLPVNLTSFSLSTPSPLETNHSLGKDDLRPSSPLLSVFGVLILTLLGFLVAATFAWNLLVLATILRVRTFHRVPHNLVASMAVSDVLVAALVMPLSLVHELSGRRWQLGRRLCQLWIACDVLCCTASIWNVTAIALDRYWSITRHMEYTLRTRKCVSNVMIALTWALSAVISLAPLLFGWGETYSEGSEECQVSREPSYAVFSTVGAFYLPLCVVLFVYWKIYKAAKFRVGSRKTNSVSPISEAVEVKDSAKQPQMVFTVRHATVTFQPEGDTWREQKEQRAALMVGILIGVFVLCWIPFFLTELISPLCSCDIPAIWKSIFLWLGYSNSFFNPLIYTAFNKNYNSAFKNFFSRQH
UniProt Q01959, whole entry: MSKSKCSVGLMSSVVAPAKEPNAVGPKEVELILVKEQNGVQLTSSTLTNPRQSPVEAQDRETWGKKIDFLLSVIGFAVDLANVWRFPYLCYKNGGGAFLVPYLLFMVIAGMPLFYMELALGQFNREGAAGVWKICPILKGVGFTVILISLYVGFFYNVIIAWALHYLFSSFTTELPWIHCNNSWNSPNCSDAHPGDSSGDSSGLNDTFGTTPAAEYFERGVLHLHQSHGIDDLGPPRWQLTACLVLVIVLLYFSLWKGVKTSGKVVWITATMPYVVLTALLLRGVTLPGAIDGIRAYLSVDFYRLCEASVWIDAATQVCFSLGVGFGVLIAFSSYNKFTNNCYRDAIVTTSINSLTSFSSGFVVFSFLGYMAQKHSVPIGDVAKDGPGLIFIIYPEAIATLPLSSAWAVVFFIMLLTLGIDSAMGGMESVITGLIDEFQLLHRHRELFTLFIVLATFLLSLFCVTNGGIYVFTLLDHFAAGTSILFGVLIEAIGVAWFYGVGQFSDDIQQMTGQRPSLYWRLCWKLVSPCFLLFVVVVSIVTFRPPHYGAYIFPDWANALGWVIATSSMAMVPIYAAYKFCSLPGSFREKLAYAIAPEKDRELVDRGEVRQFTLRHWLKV
UniProt Q99720, whole entry: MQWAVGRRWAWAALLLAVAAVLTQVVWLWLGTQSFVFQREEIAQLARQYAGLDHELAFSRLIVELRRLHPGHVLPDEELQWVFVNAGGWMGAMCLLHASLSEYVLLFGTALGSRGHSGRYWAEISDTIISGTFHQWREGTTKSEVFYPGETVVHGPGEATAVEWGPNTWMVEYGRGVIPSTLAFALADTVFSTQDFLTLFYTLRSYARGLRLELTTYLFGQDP
UniProt P28223, whole entry: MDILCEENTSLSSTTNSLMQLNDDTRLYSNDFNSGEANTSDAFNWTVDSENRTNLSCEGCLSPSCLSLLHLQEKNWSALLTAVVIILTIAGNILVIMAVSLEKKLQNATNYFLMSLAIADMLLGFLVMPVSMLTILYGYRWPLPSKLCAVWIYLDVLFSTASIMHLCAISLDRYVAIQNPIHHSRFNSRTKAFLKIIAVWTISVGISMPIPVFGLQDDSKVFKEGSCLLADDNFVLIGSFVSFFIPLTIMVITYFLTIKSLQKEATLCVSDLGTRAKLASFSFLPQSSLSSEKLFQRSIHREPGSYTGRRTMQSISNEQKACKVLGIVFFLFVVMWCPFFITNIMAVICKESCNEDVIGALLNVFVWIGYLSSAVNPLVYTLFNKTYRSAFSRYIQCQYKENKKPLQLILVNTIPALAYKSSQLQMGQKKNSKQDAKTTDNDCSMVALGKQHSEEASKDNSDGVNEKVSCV
UniProt P35372, whole entry: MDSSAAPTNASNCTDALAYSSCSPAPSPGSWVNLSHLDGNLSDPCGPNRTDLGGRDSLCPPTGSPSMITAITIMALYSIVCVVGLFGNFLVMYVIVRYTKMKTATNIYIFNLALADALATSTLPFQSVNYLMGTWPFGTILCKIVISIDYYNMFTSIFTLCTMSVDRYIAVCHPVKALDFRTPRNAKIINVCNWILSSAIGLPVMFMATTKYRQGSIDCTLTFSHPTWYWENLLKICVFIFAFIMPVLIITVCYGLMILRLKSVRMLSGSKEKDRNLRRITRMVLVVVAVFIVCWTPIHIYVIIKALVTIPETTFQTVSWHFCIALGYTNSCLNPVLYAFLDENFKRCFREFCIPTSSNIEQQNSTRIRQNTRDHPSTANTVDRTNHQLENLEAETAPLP
UniProt P28221: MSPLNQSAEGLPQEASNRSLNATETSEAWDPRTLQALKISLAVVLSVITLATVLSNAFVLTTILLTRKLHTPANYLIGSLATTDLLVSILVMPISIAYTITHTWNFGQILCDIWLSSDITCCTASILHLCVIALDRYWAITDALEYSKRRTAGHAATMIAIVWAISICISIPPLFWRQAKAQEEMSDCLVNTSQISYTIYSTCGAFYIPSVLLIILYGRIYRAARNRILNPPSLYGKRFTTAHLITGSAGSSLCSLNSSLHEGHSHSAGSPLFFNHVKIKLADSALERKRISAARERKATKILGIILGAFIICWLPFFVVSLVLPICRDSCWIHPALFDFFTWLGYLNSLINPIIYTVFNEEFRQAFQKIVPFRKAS
UniProt P41145: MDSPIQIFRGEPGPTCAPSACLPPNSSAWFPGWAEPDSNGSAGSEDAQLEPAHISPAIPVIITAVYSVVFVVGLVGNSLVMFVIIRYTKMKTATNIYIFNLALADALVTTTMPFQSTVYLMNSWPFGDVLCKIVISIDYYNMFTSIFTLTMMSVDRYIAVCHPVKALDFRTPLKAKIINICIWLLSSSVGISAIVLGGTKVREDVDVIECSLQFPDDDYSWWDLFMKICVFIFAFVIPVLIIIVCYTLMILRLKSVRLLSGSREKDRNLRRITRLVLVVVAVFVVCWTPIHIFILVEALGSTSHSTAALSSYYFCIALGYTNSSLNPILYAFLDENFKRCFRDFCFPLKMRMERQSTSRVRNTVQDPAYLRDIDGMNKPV
UniProt P20309, whole entry, looked up: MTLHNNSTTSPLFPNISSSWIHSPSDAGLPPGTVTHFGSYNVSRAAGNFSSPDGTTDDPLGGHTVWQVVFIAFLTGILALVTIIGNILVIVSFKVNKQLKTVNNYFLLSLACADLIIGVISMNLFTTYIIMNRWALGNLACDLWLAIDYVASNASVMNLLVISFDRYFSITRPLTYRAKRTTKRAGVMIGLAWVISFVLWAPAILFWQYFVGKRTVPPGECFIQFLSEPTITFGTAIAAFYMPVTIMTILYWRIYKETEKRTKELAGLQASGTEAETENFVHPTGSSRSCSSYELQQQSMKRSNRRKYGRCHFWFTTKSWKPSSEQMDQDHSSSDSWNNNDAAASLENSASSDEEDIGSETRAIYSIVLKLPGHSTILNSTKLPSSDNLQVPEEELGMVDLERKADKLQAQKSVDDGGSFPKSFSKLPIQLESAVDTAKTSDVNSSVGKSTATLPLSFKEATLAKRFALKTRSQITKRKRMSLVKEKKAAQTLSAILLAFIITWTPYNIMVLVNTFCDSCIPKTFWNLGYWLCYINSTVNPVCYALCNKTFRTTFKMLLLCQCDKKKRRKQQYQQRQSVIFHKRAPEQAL
UniProt P35368, whole entry: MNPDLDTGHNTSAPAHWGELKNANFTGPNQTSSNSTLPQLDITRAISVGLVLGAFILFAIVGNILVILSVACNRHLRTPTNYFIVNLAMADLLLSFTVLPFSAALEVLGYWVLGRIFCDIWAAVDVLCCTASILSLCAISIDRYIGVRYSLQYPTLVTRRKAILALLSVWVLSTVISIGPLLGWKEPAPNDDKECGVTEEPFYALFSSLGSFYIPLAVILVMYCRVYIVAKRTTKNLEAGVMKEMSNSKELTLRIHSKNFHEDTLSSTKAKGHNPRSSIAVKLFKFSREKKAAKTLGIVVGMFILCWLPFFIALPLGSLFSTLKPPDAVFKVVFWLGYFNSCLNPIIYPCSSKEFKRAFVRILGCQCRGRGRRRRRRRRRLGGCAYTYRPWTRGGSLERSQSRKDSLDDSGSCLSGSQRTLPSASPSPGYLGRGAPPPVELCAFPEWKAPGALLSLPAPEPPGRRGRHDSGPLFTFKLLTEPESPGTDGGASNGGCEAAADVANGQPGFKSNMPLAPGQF
UniProt P28335: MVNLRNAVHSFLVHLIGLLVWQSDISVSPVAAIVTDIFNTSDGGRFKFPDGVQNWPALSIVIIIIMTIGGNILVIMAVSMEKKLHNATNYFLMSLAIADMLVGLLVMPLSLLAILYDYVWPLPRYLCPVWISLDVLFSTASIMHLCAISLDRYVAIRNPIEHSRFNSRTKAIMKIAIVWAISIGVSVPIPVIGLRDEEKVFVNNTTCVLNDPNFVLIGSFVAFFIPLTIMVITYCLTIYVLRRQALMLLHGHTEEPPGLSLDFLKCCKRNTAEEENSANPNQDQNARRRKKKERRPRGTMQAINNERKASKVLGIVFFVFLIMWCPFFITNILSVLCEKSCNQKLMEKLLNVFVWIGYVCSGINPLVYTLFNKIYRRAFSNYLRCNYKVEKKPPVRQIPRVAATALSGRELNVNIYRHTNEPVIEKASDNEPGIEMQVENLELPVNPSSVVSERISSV
UniProt P21728, whole entry: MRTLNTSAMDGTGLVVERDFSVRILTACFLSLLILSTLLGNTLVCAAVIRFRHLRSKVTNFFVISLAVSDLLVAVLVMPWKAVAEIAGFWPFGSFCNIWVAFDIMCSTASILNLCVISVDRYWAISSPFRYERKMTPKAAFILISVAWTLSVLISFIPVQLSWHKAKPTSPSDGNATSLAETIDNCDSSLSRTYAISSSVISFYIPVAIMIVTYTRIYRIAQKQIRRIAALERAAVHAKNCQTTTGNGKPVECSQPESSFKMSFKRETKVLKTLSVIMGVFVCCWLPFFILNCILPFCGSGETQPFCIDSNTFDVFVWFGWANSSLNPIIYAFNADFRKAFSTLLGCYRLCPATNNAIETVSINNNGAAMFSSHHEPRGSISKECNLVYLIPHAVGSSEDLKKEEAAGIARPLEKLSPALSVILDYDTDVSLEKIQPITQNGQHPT
UniProt P14416, whole entry: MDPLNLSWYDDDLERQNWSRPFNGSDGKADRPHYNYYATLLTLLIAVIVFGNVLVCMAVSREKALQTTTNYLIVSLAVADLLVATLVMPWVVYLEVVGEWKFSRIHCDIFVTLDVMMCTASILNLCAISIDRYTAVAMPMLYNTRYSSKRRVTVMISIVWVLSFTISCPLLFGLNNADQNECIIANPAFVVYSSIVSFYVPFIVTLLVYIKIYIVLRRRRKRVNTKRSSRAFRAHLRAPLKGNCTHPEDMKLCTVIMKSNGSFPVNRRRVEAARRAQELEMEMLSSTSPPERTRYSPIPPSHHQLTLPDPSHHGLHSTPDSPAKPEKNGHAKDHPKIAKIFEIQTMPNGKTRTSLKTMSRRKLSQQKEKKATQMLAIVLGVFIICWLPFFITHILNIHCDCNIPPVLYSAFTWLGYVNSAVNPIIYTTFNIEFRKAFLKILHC
UniProt Q5BJF2, whole entry: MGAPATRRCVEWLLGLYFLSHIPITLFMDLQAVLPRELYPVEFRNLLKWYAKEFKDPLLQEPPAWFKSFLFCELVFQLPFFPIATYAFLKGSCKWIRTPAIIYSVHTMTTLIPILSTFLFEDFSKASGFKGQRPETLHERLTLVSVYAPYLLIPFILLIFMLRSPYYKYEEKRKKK
UniProt P21917, whole entry: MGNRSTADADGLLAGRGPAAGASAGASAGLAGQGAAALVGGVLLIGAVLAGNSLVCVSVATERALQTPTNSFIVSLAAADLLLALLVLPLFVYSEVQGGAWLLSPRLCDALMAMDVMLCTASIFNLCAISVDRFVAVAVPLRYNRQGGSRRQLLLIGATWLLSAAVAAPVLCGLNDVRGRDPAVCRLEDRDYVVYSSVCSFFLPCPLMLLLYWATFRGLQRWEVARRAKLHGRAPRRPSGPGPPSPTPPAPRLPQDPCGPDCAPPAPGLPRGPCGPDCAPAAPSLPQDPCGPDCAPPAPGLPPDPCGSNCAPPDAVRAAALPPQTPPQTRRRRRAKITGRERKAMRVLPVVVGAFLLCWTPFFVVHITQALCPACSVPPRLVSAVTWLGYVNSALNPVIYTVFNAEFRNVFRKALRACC
UniProt P41595, whole entry: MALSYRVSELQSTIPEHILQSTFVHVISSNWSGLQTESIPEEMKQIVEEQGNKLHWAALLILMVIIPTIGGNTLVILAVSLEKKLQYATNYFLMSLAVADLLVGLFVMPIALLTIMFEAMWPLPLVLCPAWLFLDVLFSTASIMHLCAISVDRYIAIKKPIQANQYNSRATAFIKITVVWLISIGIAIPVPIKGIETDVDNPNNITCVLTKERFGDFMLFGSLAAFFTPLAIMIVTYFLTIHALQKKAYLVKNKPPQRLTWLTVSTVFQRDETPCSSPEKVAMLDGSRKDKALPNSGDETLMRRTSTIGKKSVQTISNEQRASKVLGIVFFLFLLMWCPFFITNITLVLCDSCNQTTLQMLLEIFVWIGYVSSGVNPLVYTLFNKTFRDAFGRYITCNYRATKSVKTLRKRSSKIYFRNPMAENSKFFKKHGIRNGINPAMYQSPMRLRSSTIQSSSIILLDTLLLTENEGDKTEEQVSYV

Legend:
[1] = biological target: 5-hydroxytryptamine receptor 5A (Homo sapiens) (UniProt P47898); assay: Binding affinity to 5-HT5A (unknown origin) at 10 uM
[2] = biological target: Sodium-dependent dopamine transporter (Homo sapiens) (UniProt Q01959); assay: Binding affinity to DAT (unknown origin) at 10 uM
[3] = biological target: Sigma non-opioid intracellular receptor 1 (Homo sapiens) (UniProt Q99720); assay: Binding affinity to Sigma 1 receptor (unknown origin) at 10 uM
[4] = biological target: 5-hydroxytryptamine receptor 2A (Homo sapiens) (UniProt P28223); assay: Binding affinity to 5-HT2A (unknown origin) at 10 uM
[5] = biological target: Mu-type opioid receptor (Homo sapiens) (UniProt P35372); assay: Binding affinity to MOR (unknown origin) at 10 uM
[6] = biological target: Delta-type opioid receptor (Homo sapiens) (UniProt P41143); assay: Binding affinity to DOR (unknown origin) at 10 uM
[7] = biological target: 5-hydroxytryptamine receptor 1D (Homo sapiens) (UniProt P28221); assay: Binding affinity to 5-HT1D (unknown origin) at 10 uM
[8] = biological target: Kappa-type opioid receptor (Homo sapiens) (UniProt P41145); assay: Binding affinity to KOR (unknown origin) at 10 uM
[9] = biological target: T1, Alpha-1A adrenergic receptor (Homo sapiens) (UniProt P35348); assay: Binding affinity to alpha-1A adrenergic receptor (unknown origin) at 10 uM
T1 sequence (whole entry): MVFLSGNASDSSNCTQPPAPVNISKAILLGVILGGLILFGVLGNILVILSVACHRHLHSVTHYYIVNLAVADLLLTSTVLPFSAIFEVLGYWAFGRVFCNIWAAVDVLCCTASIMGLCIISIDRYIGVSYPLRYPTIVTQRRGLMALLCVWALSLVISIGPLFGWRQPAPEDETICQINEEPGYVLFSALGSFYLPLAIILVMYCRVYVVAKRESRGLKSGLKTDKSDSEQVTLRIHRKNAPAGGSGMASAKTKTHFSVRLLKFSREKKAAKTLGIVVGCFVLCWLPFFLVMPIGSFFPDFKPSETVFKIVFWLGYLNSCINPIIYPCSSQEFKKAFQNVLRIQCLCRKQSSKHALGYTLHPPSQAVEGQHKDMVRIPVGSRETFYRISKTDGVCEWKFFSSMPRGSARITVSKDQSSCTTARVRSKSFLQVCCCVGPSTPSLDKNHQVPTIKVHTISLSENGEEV

[10] = biological target: Muscarinic acetylcholine receptor M3 (Homo sapiens) (UniProt P20309); assay: Binding affinity to M3 receptor (unknown origin) at 10 uM
[11] = biological target: Alpha-1B adrenergic receptor (Homo sapiens) (UniProt P35368); assay: Binding affinity to alpha-1B adrenergic receptor (unknown origin) at 10 uM
[12] = biological target: 5-hydroxytryptamine receptor 2C (Homo sapiens) (UniProt P28335); assay: Binding affinity to 5-HT2C (unknown origin) at 10 uM
[13] = biological target: D(1A) dopamine receptor (Homo sapiens) (UniProt P21728); assay: Binding affinity to D1 receptor (unknown origin) at 10 uM
[14] = biological target: D(2) dopamine receptor (Homo sapiens) (UniProt P14416); assay: Binding affinity to D2 receptor (unknown origin) at 10 uM
[15] = biological target: Sigma intracellular receptor 2 (Homo sapiens) (UniProt Q5BJF2); assay: Binding affinity to Sigma 2 receptor (unknown origin) at 10 uM
[16] = biological target: D(4) dopamine receptor (Homo sapiens) (UniProt P21917); assay: Binding affinity to D4 receptor (unknown origin) at 10 uM
[17] = biological target: 5-hydroxytryptamine receptor 1A (Homo sapiens) (UniProt P08908); assay: Binding affinity to 5-HT1A (unknown origin) at 10 uM
[18] = biological target: 5-hydroxytryptamine receptor 2B (Homo sapiens) (UniProt P41595); assay: Binding affinity to 5-HT2B (unknown origin) at 10 uM

Measured: Activity

COc1cc(Cn2ccc3cc(C(=O)NCC45C[C@H]6C[C@@H](C4)C[C@@H](C5)C6)ccc32)ccc1C(=O)NO
inactive: [1] | [2] | [3] | [4] | [5] | [6] | [7] | [8] | [9] | [10] | [11] | [12] | [13] | [14] | [15] | [16] | [17] | [18]

The source made the active and inactive calls.
